Among the data in patent US20230303584A1, “4,5,6,7-TETRAHYDROTHIENO[2,3-C]PYRIDINE SUMO INHIBITORS AND USES THEREOF” (SUVALENT THERAPEUTICS INC., priority 2020, published 2023) are IC50 values, retold here.

Sequences of proteins named here, by UniProt entry; tags and fusion partners are left off.
UniProt Q9UBT2, whole entry: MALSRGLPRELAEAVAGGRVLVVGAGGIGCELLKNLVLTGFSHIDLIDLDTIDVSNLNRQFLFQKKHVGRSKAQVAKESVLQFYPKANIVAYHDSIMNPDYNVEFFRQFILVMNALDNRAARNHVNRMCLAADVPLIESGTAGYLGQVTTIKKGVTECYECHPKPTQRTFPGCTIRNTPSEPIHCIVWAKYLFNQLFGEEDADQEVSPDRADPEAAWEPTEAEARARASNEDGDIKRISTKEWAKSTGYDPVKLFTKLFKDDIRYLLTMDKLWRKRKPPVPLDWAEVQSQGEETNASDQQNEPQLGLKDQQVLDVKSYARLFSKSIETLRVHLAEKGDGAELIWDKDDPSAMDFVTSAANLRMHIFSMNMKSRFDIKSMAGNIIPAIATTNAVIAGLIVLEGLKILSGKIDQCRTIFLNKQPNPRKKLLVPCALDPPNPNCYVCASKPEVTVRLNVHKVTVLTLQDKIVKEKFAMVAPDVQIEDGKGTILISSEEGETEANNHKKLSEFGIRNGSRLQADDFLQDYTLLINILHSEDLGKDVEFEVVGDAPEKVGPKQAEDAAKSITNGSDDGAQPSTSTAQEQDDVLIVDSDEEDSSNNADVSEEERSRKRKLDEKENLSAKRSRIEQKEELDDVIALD
UniProt Q9UBE0, whole entry partner: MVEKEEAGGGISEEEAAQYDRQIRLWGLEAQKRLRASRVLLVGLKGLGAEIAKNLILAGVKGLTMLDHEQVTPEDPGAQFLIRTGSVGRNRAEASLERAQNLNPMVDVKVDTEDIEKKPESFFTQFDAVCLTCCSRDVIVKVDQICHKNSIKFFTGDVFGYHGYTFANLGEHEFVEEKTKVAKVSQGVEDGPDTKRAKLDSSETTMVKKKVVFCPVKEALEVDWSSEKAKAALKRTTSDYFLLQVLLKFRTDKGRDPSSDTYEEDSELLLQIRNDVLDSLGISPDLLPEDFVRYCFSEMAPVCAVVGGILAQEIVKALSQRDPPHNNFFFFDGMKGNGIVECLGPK

The subject of test [1] is SUMO 2/3 conjugates (sumoylation levels) in HCT-116 cells. The test can be described thus: HCT-116 4 hour cell assay, immunoblot of SUMO 2/3 conjugates. The conditions noted are these: read-out: Cell HCT-116 Western SUMO 2/3 4 h IC50 (uM) Ave, 4 h treatment, Western blot. On the procedure: This protocol describes the procedures used to assess the effects of compounds of interest on sumoylation levels. Immunoblot of SUMO ⅔ conjugates are performed and IC50 curves are generated upon quantification of sumoylations bands. HCT-1 16 cells are seeded in a 12 well plate (500,000 cells/well). The following day the cells are treated with compounds of interest (resuspended in DMSO) for 4 hours (11 concentrations with a three-fold dilution; starting concentration 25 µM) Following 4 hours of incubation the cells are washed with ice cold PBS 1X and protein extraction is performed with RIPA buffer supplemented with phosphatases and proteases inhibitors, 25 mM of NEM and 50 units/mL of Benzonase . Samples undergo centrifugation at 13,000 RPM, 4° C., for 10 minutes and the supernatant is collected. Protein quantification is performed using BCA. Non-Reducing Laemmli Buffer is added to the samples. Samples are heated at 75° C. for 10 minutes, and are centrifuged for 3 minutes at 9000 RPM Nupage 4-12% Bis Tris gels and 1x MOPS buffer (Fisher Scientific) + 1x NuPAGE Antioxidant (Invitrogen) are used to perform the SDS-PAGE gel electrophoresis (20 to 40 µg of proteins are loaded in the gels). Proteins are then transferred to PVDF membranes and the level of total proteins are measured by staining with Revert Total Protein Stain and the fluorescent bands are acquired using the LI-COR FC (700 nm for 1 min) Membranes are blocked for 5 minutes with Bio-Rad Blocking Buffer and are subsequently incubated over night at 4° C. with Anti-Sumo 2-3 mAb (MBL #M114-3, 1:1000 in Bio-Rad Blocking Buffer, 0.2% Tween 20) Membranes are washed with 1X TBS-T (3 times for 5 minutes) and sumoylation is detected using Li-cor IRDye 800CW Goat anti-Mouse IgG secondary antibody (1:10,000 dilution) upon 1 hour of incubation in blocking buffer with 0.2% Tween 20 and 0.01% SDS. After the incubation, the membranes are washed with 1X TBS-T (3 times for 5 minutes). To visualize the fluorescent bands the membranes are scanned with LI-COR FC (700 nm for 1 min and […] for 2 mins) Sumoylation levels are quantified upon normalization with total protein levels, using the LI-COR Image Studio Lite 5.2 Software.
For orientation: In western blotting, separated proteins are transferred to a membrane and probed.

The target in test [2] is SAE1 (Homo sapiens (Human), UniProt Q9UBT2). The test can be described thus: SAE high throughput biochemical (HTRF) assay. The note with it: read-out: 15 min preincubation HTRF IC50 (uM) Ave, 100 µM ATP. On the procedure: Assay buffer was prepared [50 mM HEPES, pH 7.5, 0.1% BSA and 10 mM MgCl2] as was the Stop Buffer [100 mM HEPES, pH 7.5, 0.05% Tween20, and 410 mM KF]. The 2x Reaction Buffer [80 nM SUMO-GST, 80 nM UBC9-His, 200 µM ATP and diluted in Assay Buffer] and Antibody Reaction Mix [13.34 nM anti-GST XL665, 1.66 nM anti-His EuK and Diluted in Stop Buffer] were also prepared. Compounds were dissolved at 200x in DMSO in a 384-well plate. Serial dilutions were performed in DMSO for each compound, and then each concentration was diluted another 50-fold in Assay Buffer, to 4x the final concentration. 2.5 µL of each concentration was transferred into its own well in a 384-well plate. SAE1 was then diluted to 4x in Assay Buffer, and 2.5 µL of 4x SAE1 was mixed into each compound-containing well. After incubating for 15 minutes at room temperature, 5 µL of 2x Reaction Buffer was mixed into every well. Then after another 45 minutes at room temperature, 10 µL of Antibody Reaction Mix was added and mixed into every well. This plate was then read on an HTRF-compatible plate reader after 2 hours at room temperature, and again after sitting at room temperature overnight. [Final Component Concentrations: SAE1: 12.5 nM; SUMO-GST: 40 nM; UBC9-His: 40 nM; Anti-GST-XL665: 6.67 nM; Anti-His-EuK: 0.83 nM; and ATP: 100 µM ] Alternatively, the compounds are tested at a single concentration of 25 micromolar and the percent of control is measured.
On the technique in general: TR-FRET usually uses a lanthanide donor and a delayed reading to cut background.

Each structure is given as a SMILES string.

Take `CN(C)C/C=C/C(=O)N1Cc2sc(Cl)cc2[C@H](c2ccccc2-c2cn(C)nc2C(F)(F)F)C1`: the IC50 stood at 1.58 µM in test [1] and 1.01 µM in test [2].

With `[2H]C([2H])([2H])n1cc(-c2ccccc2[C@@H]2CN(C(=O)C=C)Cc3sc(Cl)cc32)c(C(F)(F)F)n1`, the IC50 is 0.58 µM in test [1] and 0.26 µM in test [2].

On to `[2H]C([2H])([2H])n1cc(-c2ccccc2[C@@H]2CN(C(=O)/C=C/CN(C)C)Cc3sc(Cl)cc32)c(C(F)(F)F)n1`, for which the IC50 in test [1] turned out to be 0.94 µM; in test [2], 0.83 µM.

For the compound `C=CC(=O)N1Cc2sc(Cl)cc2[C@H](c2ccccc2-c2cn(CCC)nc2C(F)(F)F)C1`, the IC50 is 0.51 µM in test [1] and 0.31 µM in test [2].

For `CCn1cc(-c2ccccc2[C@@H]2CN(C(=O)/C=C/C3CCCN3C)Cc3sc(Cl)cc32)c(C(F)(F)F)n1` (stereo partly shown), the IC50 in test [1] was found to be 0.96 µM; in test [2], 2.59 µM.
